IC50 data for one compound are collected here from patent publication US9809582B2, “Aminoester derivatives” (CHIESI FARMACEUTICI S.p.A., priority 2015, dated 2017).

Sequences of proteins named here, by UniProt entry; tags and fusion partners are left off. A line that says so, or that is headed by a name, gives the form on record, which may keep a tag or linker. Residues count along the entry.
UniProt P20309, whole entry, looked up: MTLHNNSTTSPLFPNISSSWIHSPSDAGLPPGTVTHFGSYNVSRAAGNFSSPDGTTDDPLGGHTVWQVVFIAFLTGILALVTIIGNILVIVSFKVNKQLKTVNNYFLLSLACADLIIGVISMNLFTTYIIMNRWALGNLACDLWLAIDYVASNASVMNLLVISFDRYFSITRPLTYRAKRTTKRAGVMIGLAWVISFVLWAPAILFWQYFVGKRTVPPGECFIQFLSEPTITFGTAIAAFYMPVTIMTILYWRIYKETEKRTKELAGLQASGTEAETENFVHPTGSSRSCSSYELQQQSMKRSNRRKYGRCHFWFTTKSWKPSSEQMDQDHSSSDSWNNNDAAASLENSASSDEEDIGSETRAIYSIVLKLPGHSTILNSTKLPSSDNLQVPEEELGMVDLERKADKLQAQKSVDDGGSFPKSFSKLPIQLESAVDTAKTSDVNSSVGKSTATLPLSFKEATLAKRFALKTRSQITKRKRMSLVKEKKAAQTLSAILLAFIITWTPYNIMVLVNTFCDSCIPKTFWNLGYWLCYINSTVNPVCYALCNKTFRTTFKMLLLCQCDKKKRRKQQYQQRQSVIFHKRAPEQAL
UniProt Q07343, 212-736 with tags or gaps limits assumed: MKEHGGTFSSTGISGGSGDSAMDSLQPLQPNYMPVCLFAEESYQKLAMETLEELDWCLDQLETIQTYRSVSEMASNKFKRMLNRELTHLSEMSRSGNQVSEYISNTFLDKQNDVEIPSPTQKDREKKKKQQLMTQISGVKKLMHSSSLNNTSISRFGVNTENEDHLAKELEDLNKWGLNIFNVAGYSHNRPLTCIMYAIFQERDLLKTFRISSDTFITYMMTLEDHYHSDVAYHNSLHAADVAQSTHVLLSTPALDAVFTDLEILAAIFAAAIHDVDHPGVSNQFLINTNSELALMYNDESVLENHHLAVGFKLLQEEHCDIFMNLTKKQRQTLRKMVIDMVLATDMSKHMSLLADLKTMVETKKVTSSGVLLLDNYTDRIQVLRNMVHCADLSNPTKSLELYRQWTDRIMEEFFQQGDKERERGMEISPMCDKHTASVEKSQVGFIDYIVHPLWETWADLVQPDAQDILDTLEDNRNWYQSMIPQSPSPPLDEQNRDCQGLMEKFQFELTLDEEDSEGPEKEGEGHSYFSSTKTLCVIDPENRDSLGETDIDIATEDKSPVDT

Structures are written as SMILES. Bounds are passed on as bounds.

One assay has as its target Human M3 receptor (Homo sapiens (Human), UniProt P20309). Briefly: M3 receptor radioligand binding assay. Conditions: read-out: M3 IC50 Activity.
The target of a further assay is Human recombinant PDE4B2 (Homo sapiens (Human), UniProt Q07343). Nature of the assay: PDE4B2 HTRF assay. The assay is classed as biochemical. Conditions: read-out: PDE4B2 IC50 Activity. A general note: Time-resolved FRET reads energy transfer from a long-lived donor to a nearby acceptor.

In the case of `COc1ccc([C@H](Cc2c(Cl)c[n+]([O-])cc2Cl)OC(=O)c2ccc(CNCC(O)(C(=O)O[C@H]3CN4CCC3CC4)c3cccs3)s2)cc1OC` (some centres unmarked), the IC50 (in general, the concentration at which inhibition is half-maximal) at Human M3 receptor was 1 to 10 nM; on Human recombinant PDE4B2, below 1 nM.
